Laboratory results from patent US4136193A, “Anti-depressive substituted 1-dimethylaminopropyl-1-phenyl phthalans” (Kefalas A/S, priority 1976, dated 1979).

Test system: 14C-5-HT-uptake in rabbit blood platelets
Assay: Inhibition of 14C-5-HT-uptake in rabbit blood platelets in vitro
Format: cell-based
Details: Oryctolagus cuniculus, Platelet, pH 7.2, read-out: C14 5-HT uptake inhibitory concentration IC50
Protocol: Two ml of rabbit platelet-enriched plasma, containing EDTA as an anticoagulant, were incubated with test compound and 2 ml of 0.05 M Na-P-buffer, pH 7.2, for 5 minutes at 37° C. […] The incubation was terminated by transferring the test tubes to an ice bath, and the platelets were isolated by centrifugation (~4000 g, 5 min., 4° C.). After draining, the platelets were gently washed with 4 ml of ice-cold saline, and the remaining radioactivity was determined. The uptake in the test samples was calculated in percent of the uptake in the control group and plotted against the concentration of test compound on semilogarithmic probability paper, from which the IC50-value was determined.

Row | SMILES | IC50 [µM]
1 | CN(C)CCC=C1c2ccccc2CCc2ccccc21 [Amitriptyline, reference compound] | 0.5
2 | CN(C)CCCN1c2ccccc2CCc2ccc(Cl)cc21 [Chlorimipramine, reference compound] | 0.077
3 | CN(C)CCCC1(c2ccc(F)cc2)OCc2cc(C#N)ccc21 (stereo not drawn) [Lu 10-171, 1-(4'-fluorophenyl)-1-(3-dimethylaminopropyl)-5-phthalancarbonitrile] | 0.014
